Measured affinities in a library of Ab-14 light chain variants

All variants were tested on one target, the spike HR2 peptide PDVDLGDISGINAS (SARS-CoV-2).

Parent: Ab-14, a human scFv built as VH, three GGGGS repeats, VL. Only the CDRs of the light chain vary.
VH: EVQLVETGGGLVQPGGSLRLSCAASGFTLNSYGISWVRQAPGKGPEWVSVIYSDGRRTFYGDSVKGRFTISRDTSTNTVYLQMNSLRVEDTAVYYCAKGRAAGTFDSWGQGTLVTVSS
VL: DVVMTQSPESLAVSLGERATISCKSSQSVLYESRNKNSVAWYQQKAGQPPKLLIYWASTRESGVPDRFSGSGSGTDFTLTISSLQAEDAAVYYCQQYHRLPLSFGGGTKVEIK

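The parent was found by panning a naive human phage display library on the peptide. The library (AAYL50) carries one to three amino acid substitutions per variant, with no insertions or deletions. The assay is AlphaSeq: two haploid yeast populations carry antibody and antigen on their surface. Pairs that bind mate more often; barcode pairs of the diploids are counted by sequencing. The ratio of observed to expected reads was calibrated, replicate by replicate, on BCL2-family standards whose Kd was known from biolayer interferometry. Each pool was mated in three replicate cultures.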

The whole VL of each variant is written out.
The Kd shown is the geometric mean over detected replicates; a lower Kd is a better binder.
"no signal" marks a missing value. The strain was present, yet no cells mated with the target were sequenced in any replicate, which points to weak or no binding.
In this assay the parent's reference entry averaged 4.4 nM; its copy inside this library read 48 nM.
Three control strains display no target. For library AAYL50, 18% of the pairings with them gave a signal, with a median of 15 µM and one signal in twenty below 970 nM, so weak values seen in few replicates may be background. The control count says in how many pairings with the empty strains this scFv gave a signal.

| VL | Kd (apparent) | seen in | signal with controls |
|---|---|---|---|
| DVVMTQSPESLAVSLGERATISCKSSQSVLYESRNKNSVQWYQQKAGQPPKLLIYYASTRESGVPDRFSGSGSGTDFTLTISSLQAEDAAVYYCQQYHRLPTSFGGGTKVEIK | no signal | 0 of 3 | 0 of 9 |
| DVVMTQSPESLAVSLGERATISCKSSQSVLFESRNKNSVAWYQQKAGQPPKLLIYWASTREGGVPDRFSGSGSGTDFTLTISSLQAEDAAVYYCQQYRRLPLSFGGGTKVEIK | no signal | 0 of 3 | 0 of 9 |
| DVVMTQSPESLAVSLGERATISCKSSQSVLYESLNKNSVEWYQQKAGQPPKLLIYWCSTRESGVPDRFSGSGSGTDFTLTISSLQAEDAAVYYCQQYHRLPLSFGGGTKVEIK | no signal | 0 of 3 | 0 of 9 |
| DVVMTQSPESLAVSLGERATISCSSSQSVLYTGRNKNSVAWYQQKAGQPPKLLIYWASTRESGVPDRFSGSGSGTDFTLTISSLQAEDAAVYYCQQYHRLPLSFGGGTKVEIK | 16 nM | 3 of 3 | 4 of 9 |
| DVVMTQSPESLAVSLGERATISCKSSQPVLYESRNKSSVAWYQQKAGQPPKLLIYWASTREEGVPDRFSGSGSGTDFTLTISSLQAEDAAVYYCQQYHRLPLSFGGGTKVEIK | 57 nM | 3 of 3 | 0 of 9 |
| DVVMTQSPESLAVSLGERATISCKSSQVVLYESRNKNSVAWYQQKAGQPPKLLIYWASTRESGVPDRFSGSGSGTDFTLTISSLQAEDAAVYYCIQYHRLPLSFGGGTKVEIK | 49 µM | 1 of 3 | 2 of 9 |
| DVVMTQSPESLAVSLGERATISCKSSQSVLYESRNKNSVAWYQQKAGQPPKLLIYWNNTRESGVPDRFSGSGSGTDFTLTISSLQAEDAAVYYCDQYHRLPLSFGGGTKVEIK | no signal | 0 of 3 | 0 of 9 |
| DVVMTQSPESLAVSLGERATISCKSSQSVLYSSRNKNSRAWYQQKAGQPPKLLIYWASTRESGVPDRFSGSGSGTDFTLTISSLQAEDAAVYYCQQYHRLPRSFGGGTKVEIK | 8.4 µM | 3 of 3 | 4 of 9 |
| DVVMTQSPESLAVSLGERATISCKSSQNVLYESRNKNSVAWYQQKAGQPPKLLIYWASTRVSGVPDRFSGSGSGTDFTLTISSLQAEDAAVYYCQQYHRLPLSFGGGTKVEIK | 4.5 nM | 3 of 3 | 3 of 9 |
| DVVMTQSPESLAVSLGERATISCKSGQSVLYESRYKNSVAWYQQKAGQPPKLLIYWASTREHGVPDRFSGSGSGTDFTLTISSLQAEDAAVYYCQQYHRLPLSFGGGTKVEIK | 190 nM | 3 of 3 | 3 of 9 |
| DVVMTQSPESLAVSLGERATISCKSPQAVLYESRNKNSVAWYQQKAGQPPKLLIYWASTREDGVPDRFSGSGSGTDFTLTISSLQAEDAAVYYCQQYHRLPLSFGGGTKVEIK | 2.3 nM | 3 of 3 | 0 of 9 |
| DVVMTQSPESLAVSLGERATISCKSEQSVLYESRNENSVAWYQQKAGQPPKLLIYWASNRESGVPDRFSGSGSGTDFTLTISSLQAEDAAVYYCQQYHRLPLSFGGGTKVEIK | no signal | 0 of 3 | 0 of 9 |
| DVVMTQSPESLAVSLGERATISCKSSQSVLYESRNKNSWAWYQQKAGQPPKLLIYWHSTRESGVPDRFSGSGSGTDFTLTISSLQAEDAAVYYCQQYVRLPLSFGGGTKVEIK | 18 µM | 2 of 3 | 6 of 9 |
| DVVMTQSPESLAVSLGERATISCKSSQSVLYESRVKNSVAWYQQKAGQPPKLLIYWASTCESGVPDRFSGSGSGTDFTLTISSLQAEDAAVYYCQQYHFLPLSFGGGTKVEIK | 4.9 µM | 1 of 3 | 1 of 9 |
| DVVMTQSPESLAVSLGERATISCKSSQSVLYESRNKNSVAWYQQKAGQPPKLLIYIATTRESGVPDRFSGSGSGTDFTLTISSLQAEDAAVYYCQQYHRLPLSFGGGTKVEIK | 3.3 µM | 1 of 3 | 2 of 9 |
| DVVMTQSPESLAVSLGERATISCKSSQSVLYESRNKNSVAWYQQKAGQPPKLLIYWASTRESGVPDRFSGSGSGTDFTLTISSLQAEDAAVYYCIQYHRLPLGFGGGTKVEIK | no signal | 0 of 3 | 0 of 9 |
| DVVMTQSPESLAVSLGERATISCKSSQVVLYEVRNKNSVAWYQQKAGQPPKLLIYWQSTRESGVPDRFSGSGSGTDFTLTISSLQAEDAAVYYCQQYHRLPLSFGGGTKVEIK | 5.0 mM | 1 of 3 | 5 of 9 |
| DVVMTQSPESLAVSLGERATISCKSSQEVLYESRNENSVAWYQQKAGQPPKLLIYWASRRESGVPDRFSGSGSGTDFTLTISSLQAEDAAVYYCQQYHRLPLSFGGGTKVEIK | 4.6 nM | 3 of 3 | 3 of 9 |
| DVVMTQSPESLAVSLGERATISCKSSQSVLYESRNKNSVAWYQQKAGQPPKLLIYAASTIESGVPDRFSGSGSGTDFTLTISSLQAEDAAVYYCQQYHRLPLSFGGGTKVEIK | 9.1 nM | 3 of 3 | 0 of 9 |

Extract of 2 entries:

VL,Kd (apparent),seen in,signal with controls
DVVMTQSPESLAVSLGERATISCKSSQSVLYESRNKNSVAWYQQKAGQPPKLLIYAASTIESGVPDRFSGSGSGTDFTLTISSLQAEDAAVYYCQQYHRLPLSFGGGTKVEIK,9.1 nM,3 of 3,0 of 9
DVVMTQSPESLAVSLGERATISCKSSQSVLYESLNKNSVEWYQQKAGQPPKLLIYWCSTRESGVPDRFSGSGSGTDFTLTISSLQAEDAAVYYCQQYHRLPLSFGGGTKVEIK,no signal,0 of 3,0 of 9

From the AlphaSeq antibody data of Engelhart et al. 2022 (doi:10.1038/s41597-022-01779-4), copy in the FLAb collection.